Here are results for 72 molecules from PubChem BioAssay AID504466 (National Center for Advancing Translational Sciences (NCATS), 2011).

This is a selection; strong and weak results do not stand in their true shares. Results filed as inconclusive are left out. Some salts and complexes are drawn in separate pieces, as the source files them; their charges need not balance. The source made the active and inactive calls. Calls come from the whole dose curve; as a rule, active = well fitted activation curve with a large enough effect; inconclusive = small, poorly fitted or top-dose-only effect; inactive = no such curve, though single readings can be large or run the other way.

This assay in a line: qHTS screen for small molecules that induce genotoxicity in human embryonic kidney (HEK293T) cells expressing luciferase-tagged ELG1. Note: % of control where 0% means no effect; nearly all actives have a fitted effect of over 60% in size. The conditions noted are these: HEK293T ELG1-luciferase reporter, luminescence, 16 h; at 46 µM (top of the series). The source says: NIH Molecular Libraries Probe Production Network [MLPCN] NIH Chemical Genomics Center [NCGC] MLPCN Grant: 1 R03 MH092164-01 Assay Provider: Kyungjae Myung, NHGRI, NIH Keywords: MLPCN, qHTS, NCGC, genotoxicity, cancer Assay Overview: Cancer cells divide rapidly compared to normal cells in the body. During cell division, cancer cells need to duplicate their genome by DNA replication. The failure of genome duplication leads to cancer cells' death. Therefore, inhibitors of DNA replication could specifically kill cancer cells. Based on this concept, many chemotherapeutic agents were developed and have been used to treat cancer patients. However, there are a limited number of agents available in the clinical setting, and some of those that do exist have low efficacy and severe side effects. Therefore, if we can find the compounds that effectively block DNA replication either by directly damaging DNA or by inhibiting other cellular mechanisms, the options for cancer treatment will be broadened. With this in mind, we developed a quantitative high-throughput ELG1-luciferase reporter gene assay. Since the level of human ELG1 protein is enhanced in response to genetic stresses, increases in luciferase activity can be used to identify compounds that cause genetic stress.
Assay Protocol Summary: For genotoxicity screening, 2,000 cells in 5 uL/well were dispensed into white, solid-bottom 1536-well plates using a solenoid-based dispenser. Following transfer of 23 nL compound or DMSO vehicle by a pin tool, the plates were incubated 16 hr at 37 °C and 5% CO2. 5 ul ONE-Glo (Promega) was then added to each plate and following a 30 min incubation at room temperature, luciferase activity was quantified on a ViewLux CCD-based plate reader.
On to `CC(C)(C)OC(=O)N1CCC(Nc2ccccc2)CC1`, for which the activity change, positive = activation was inactive: -4.67%.
For `O=C(O)C1(Nc2ccccc2)CCN(Cc2ccccc2)CC1`, the activity change, positive = activation is inactive: -2.16%.
On to `CCCOc1ccc(C(=O)NCC2(N(C)C)CCCCC2)cc1`, for which the activity change, positive = activation was inactive: 0.0406%.
As for `CCOc1ncccc1C(=O)NCC1(N2CCOCC2)CCCCC1`, the activity change, positive = activation was inactive: -0.527%.
For `CN1CCC(Nc2ccc(F)c(Cl)c2)CC1` the value was inactive: -2.06%; for `CN1CCC(Nc2ccc(Cl)cc2)CC1`, inactive: 1.63%; for `CCCOc1ccc(C)cc1CN(CCCl)CCCl`, inactive: -7.93%.
In the case of `COc1cccc(C(=O)N(c2cc(C)cc(C)c2)C2CCN(C(=O)OC(C)(C)C)CC2)c1`, the activity change, positive = activation was inactive: -14%.
The value for `COc1cc(OC)cc(C(=O)NCC2(N3CCOCC3)CCCCC2)c1` was inactive: -2.39%; that for `CCC(CO)(C(=O)OC1CN2CCC1CC2)c1ccccc1` (configuration not stated) was inactive: -2.84%; that for `Cc1ccc(C(=O)NCC2(N3CCCCC3)CCCCC2)o1` was inactive: 1.4%.
The value for `Fc1ccccc1NC1CCN(Cc2ccccc2)CC1` was inactive: -1.17%; that for `COc1cc(OC)cc(C(=O)NCC2(N3CCCCC3)CCCCC2)c1` was inactive: -12.8%.
Regarding `O=C(NCC1(N2CCCCC2)CCCCC1)c1ccco1`, the activity change, positive = activation was inactive: -3.74%.
Consider `CN(C)c1ccc(C(=O)NCC2(N3CCCCC3)CCCCC2)cc1`, for which the activity change, positive = activation was inactive: 0.359%.
For the molecule `CCN1CCC(Nc2cccc(F)c2)CC1`, the activity change, positive = activation is inactive: 0.233%.
The value for `CCOC(=O)C(CC)C1=NC(C)(C)Cc2ccccc21.O=[N+]([O-])c1cc([N+](=O)[O-])c(O)c([N+](=O)[O-])c1` (configuration not stated) was inactive: -0.167%; that for `N#Cc1ccc(C(=O)NCC2(N3CCCCC3)CCCCC2)cc1` was inactive: -3.16%.
The value for `CC(C)(C)OC(=O)N1CCC(N(C(=O)c2ccccc2)c2ccc(Cl)cc2)CC1` was inactive: -10.1%; that for `CN(C)C1(CNC(=O)c2cccc(C#N)c2)CCCCC1` was inactive: 0.112%; that for `c1ccc(CN2CCC(Nc3ccccc3)CC2)cc1` was inactive: 4.65%.
For `CCCN1CCC(Nc2cc(OC)cc(OC)c2)CC1` the value was inactive: -2.32%.
With `COc1ccc(C(=O)NCC2(N3CCOCC3)CCCCC2)cc1OC`, the activity change, positive = activation was inactive: 6.72%.
Turning to `COc1cc(C(=O)NCC2(N3CCOCC3)CCCCC2)cc(OC)c1C`, the activity change, positive = activation is inactive: -4.45%.
For the molecule `O=C(NCC1(N2CCOCC2)CCCCC1)c1cc(Br)ccc1Cl`, the activity change, positive = activation is inactive: -1.44%.
For the molecule `O=C(OC1CN2CCC1CC2)C1c2ccccc2C=Cc2ccccc21` (configuration not stated), the activity change, positive = activation is inactive: -2.5%.
For `CCc1cc(C(=O)NCC2(N3CCCCC3)CCCCC2)sc1C` the value was inactive: 0.524%; for `O=C(O)c1cccc(Nc2c([N+](=O)[O-])cc([N+](=O)[O-])cc2[N+](=O)[O-])c1`, inactive: 0.307%; for `CCOC(=O)N1CCC(Nc2ccc(C)cc2)CC1`, inactive: -3.03%.
The value for `N/C(=N\O)c1c(N)no[n+]1[O-]` was inactive: -1.25%.
For `COc1cc(OC)c(C(=O)NCC2(N(C)C)CCCCC2)cc1OC` the value was inactive: -2.37%; for `O=C(NCC1(N2CCOCC2)CCCCC1)c1cc(F)c(F)cc1Cl`, inactive: -0.0361%.
Turning to `CC(C)c1ccc(NC2CCN(C(=O)OC(C)(C)C)CC2)cc1`, the activity change, positive = activation is inactive: 11.2%.
The value for `COc1ccc(CN(CCCl)CCCl)cc1Cl` was inactive: -0.0495%.
For `CN(C)c1cccc(C(=O)NCC2(N3CCCCC3)CCCCC2)c1` the value was inactive: 4.65%; for `O=[N+]([O-])c1cc([N+](=O)[O-])c(OC2CCCCC2O)c([N+](=O)[O-])c1` (configuration not stated), inactive: -2.94%.
On to `CCCOc1ccc(C(=O)NCC2(N(C)C)CCCCC2)cc1OC`, for which the activity change, positive = activation was inactive: 4.37%.
The value for `O=C(OC1CN2CCC1CC2)c1ccc([N+](=O)[O-])cc1` (configuration not stated) was inactive: -0.532%; that for `O=C(NCC1(N2CCCCC2)CCCCC1)c1cncc(Br)c1` was inactive: 2.38%; that for `COc1ccc2c(c1O)-c1c(O)c(OC)cc3c1[C@H](C2)[N+](C)(C)CC3.O=[N+]([O-])c1cc([N+](=O)[O-])c([O-])c([N+](=O)[O-])c1[O-]` was inactive: -0.62%.
For `CCN1CCC(Nc2ccc(Cl)cc2)CC1` the value was inactive: -0.065%; for `N#CC1(Nc2ccccc2)CCN(CCc2ccccc2)CC1`, inactive: 1.07%.
The value for `O=C(NCC1(N2CCCCC2)CCCCC1)c1cccc([N+](=O)[O-])c1` was inactive: 0.324%; that for `CSc1ccc(C(=O)NCC2(N3CCOCC3)CCCCC2)cc1` was inactive: -1.29%.
Take `O=C(NCC1(N2CCOCC2)CCCCC1)c1cc(=O)[nH]c2ccccc12`: the activity change, positive = activation was inactive: 4.94%.
For `COc1cc(C(=O)NCC2(N3CCCCC3)CCCCC2)ccc1OC(F)F` the value was inactive: 0.393%.
For `COc1ccc(NC2CCN(C(=O)OC(C)(C)C)CC2)cc1` the value was inactive: -3.55%; for `CC(C)c1ccc(C(=O)NCC2(N3CCOCC3)CCCCC2)cc1`, inactive: -0.106%.
On to `CN1CCN(CCOC(=O)C(O)(c2ccccc2)c2ccccc2)CC1`, for which the activity change, positive = activation is inactive: -0.423%.
The value for `O=[N+]([O-])c1cc([N+](=O)[O-])c(NCC2CCS(=O)(=O)C2)c([N+](=O)[O-])c1` (configuration not stated) was inactive: -3.7%; that for `O=C(NCC1(N2CCCCC2)CCCCC1)c1cccc(C(F)(F)F)c1` was inactive: 8.2%; that for `CCCCOc1ccc(C(=O)NCC2(N3CCOCC3)CCCCC2)cc1` was inactive: -0.44%.
The value for `CCOC(=O)N1CCC(Nc2ccc(F)cc2)CC1` was inactive: -0.259%; that for `COc1ccc(NC2CCN(CCc3ccccc3)CC2)c(OC)c1` was inactive: 0%.
With `CCOc1ccc(C)cc1CN(CCCl)CCCl`, the activity change, positive = activation is inactive: -5.99%.
For `COc1cc(C(=O)NCC2(N(C)C)CCCCC2)ccc1OC(F)F` the value was inactive: -0.58%.
For `CCOC(=O)N1CCC(Nc2cccc(C)c2)CC1` the value was inactive: -0.871%; for `Cc1ccc(OCC(C)C)c(CN(CCCl)CCCl)c1`, inactive: -2.77%.
As to `CSc1ccccc1C(=O)NCC1(N2CCCCC2)CCCCC1`, the activity change, positive = activation was inactive: -0.0438%.
With `COc1ccc(C(=O)NCC2(N3CCCCC3)CCCCC2)cc1`, the activity change, positive = activation was inactive: 5.61%.
The value for `COc1ccc(C(=O)NCC2(N3CCCCC3)CCCCC2)c(OC)c1OC` was inactive: -0.412%; that for `CC(C)(C)OC(=O)N1CCC(N(C(=O)c2ccccc2)c2ccc(F)cc2)CC1` was inactive: -3.13%.
On to `O=C(NCC1(N2CCCCC2)CCCCC1)c1ccc(=O)[nH]c1`, for which the activity change, positive = activation is inactive: 5.41%.
The value for `O=C(NCC1(N2CCCCC2)CCCCC1)c1cccs1` was inactive: 0.638%; that for `O=C(OC1CN2CCC1CC2)C1c2ccccc2Oc2ccccc21` (configuration not stated) was inactive: -2.01%.
Regarding `O=C(NCC1(N2CCCCC2)CCCCC1)c1ccc(Cl)s1`, the activity change, positive = activation was inactive: 1.23%.
Take `N#CC1(Nc2ccccc2)CCN(Cc2ccccc2)CC1`: the activity change, positive = activation is inactive: -1.38%.
`COc1ccc(Cl)cc1C(=O)NCC1(N2CCOCC2)CCCCC1`: the activity change, positive = activation was inactive: -4.43%.
As to `CCOC(=O)N1CCC(Nc2ccc(OC)cc2)CC1`, the activity change, positive = activation is inactive: -2.84%.
The value for `O=C(NCC1(N2CCCCC2)CCCCC1)c1ccc(Cl)nc1` was inactive: -0.627%; that for `Cc1cc(C)cc(N(C(=O)c2ccccc2)C2CCN(C(=O)OC(C)(C)C)CC2)c1` was inactive: -10.1%.
For the molecule `O=C(NCC1(N2CCOCC2)CCCCC1)c1cc2ccccc2o1`, the activity change, positive = activation is inactive: -5.85%.
